Values quoted from earlier work in publication PMC4368798.

The chains behind the UniProt entries cited, without tags or fusion partners. Residues count along the entry.
UniProt Q07954, 20-4544: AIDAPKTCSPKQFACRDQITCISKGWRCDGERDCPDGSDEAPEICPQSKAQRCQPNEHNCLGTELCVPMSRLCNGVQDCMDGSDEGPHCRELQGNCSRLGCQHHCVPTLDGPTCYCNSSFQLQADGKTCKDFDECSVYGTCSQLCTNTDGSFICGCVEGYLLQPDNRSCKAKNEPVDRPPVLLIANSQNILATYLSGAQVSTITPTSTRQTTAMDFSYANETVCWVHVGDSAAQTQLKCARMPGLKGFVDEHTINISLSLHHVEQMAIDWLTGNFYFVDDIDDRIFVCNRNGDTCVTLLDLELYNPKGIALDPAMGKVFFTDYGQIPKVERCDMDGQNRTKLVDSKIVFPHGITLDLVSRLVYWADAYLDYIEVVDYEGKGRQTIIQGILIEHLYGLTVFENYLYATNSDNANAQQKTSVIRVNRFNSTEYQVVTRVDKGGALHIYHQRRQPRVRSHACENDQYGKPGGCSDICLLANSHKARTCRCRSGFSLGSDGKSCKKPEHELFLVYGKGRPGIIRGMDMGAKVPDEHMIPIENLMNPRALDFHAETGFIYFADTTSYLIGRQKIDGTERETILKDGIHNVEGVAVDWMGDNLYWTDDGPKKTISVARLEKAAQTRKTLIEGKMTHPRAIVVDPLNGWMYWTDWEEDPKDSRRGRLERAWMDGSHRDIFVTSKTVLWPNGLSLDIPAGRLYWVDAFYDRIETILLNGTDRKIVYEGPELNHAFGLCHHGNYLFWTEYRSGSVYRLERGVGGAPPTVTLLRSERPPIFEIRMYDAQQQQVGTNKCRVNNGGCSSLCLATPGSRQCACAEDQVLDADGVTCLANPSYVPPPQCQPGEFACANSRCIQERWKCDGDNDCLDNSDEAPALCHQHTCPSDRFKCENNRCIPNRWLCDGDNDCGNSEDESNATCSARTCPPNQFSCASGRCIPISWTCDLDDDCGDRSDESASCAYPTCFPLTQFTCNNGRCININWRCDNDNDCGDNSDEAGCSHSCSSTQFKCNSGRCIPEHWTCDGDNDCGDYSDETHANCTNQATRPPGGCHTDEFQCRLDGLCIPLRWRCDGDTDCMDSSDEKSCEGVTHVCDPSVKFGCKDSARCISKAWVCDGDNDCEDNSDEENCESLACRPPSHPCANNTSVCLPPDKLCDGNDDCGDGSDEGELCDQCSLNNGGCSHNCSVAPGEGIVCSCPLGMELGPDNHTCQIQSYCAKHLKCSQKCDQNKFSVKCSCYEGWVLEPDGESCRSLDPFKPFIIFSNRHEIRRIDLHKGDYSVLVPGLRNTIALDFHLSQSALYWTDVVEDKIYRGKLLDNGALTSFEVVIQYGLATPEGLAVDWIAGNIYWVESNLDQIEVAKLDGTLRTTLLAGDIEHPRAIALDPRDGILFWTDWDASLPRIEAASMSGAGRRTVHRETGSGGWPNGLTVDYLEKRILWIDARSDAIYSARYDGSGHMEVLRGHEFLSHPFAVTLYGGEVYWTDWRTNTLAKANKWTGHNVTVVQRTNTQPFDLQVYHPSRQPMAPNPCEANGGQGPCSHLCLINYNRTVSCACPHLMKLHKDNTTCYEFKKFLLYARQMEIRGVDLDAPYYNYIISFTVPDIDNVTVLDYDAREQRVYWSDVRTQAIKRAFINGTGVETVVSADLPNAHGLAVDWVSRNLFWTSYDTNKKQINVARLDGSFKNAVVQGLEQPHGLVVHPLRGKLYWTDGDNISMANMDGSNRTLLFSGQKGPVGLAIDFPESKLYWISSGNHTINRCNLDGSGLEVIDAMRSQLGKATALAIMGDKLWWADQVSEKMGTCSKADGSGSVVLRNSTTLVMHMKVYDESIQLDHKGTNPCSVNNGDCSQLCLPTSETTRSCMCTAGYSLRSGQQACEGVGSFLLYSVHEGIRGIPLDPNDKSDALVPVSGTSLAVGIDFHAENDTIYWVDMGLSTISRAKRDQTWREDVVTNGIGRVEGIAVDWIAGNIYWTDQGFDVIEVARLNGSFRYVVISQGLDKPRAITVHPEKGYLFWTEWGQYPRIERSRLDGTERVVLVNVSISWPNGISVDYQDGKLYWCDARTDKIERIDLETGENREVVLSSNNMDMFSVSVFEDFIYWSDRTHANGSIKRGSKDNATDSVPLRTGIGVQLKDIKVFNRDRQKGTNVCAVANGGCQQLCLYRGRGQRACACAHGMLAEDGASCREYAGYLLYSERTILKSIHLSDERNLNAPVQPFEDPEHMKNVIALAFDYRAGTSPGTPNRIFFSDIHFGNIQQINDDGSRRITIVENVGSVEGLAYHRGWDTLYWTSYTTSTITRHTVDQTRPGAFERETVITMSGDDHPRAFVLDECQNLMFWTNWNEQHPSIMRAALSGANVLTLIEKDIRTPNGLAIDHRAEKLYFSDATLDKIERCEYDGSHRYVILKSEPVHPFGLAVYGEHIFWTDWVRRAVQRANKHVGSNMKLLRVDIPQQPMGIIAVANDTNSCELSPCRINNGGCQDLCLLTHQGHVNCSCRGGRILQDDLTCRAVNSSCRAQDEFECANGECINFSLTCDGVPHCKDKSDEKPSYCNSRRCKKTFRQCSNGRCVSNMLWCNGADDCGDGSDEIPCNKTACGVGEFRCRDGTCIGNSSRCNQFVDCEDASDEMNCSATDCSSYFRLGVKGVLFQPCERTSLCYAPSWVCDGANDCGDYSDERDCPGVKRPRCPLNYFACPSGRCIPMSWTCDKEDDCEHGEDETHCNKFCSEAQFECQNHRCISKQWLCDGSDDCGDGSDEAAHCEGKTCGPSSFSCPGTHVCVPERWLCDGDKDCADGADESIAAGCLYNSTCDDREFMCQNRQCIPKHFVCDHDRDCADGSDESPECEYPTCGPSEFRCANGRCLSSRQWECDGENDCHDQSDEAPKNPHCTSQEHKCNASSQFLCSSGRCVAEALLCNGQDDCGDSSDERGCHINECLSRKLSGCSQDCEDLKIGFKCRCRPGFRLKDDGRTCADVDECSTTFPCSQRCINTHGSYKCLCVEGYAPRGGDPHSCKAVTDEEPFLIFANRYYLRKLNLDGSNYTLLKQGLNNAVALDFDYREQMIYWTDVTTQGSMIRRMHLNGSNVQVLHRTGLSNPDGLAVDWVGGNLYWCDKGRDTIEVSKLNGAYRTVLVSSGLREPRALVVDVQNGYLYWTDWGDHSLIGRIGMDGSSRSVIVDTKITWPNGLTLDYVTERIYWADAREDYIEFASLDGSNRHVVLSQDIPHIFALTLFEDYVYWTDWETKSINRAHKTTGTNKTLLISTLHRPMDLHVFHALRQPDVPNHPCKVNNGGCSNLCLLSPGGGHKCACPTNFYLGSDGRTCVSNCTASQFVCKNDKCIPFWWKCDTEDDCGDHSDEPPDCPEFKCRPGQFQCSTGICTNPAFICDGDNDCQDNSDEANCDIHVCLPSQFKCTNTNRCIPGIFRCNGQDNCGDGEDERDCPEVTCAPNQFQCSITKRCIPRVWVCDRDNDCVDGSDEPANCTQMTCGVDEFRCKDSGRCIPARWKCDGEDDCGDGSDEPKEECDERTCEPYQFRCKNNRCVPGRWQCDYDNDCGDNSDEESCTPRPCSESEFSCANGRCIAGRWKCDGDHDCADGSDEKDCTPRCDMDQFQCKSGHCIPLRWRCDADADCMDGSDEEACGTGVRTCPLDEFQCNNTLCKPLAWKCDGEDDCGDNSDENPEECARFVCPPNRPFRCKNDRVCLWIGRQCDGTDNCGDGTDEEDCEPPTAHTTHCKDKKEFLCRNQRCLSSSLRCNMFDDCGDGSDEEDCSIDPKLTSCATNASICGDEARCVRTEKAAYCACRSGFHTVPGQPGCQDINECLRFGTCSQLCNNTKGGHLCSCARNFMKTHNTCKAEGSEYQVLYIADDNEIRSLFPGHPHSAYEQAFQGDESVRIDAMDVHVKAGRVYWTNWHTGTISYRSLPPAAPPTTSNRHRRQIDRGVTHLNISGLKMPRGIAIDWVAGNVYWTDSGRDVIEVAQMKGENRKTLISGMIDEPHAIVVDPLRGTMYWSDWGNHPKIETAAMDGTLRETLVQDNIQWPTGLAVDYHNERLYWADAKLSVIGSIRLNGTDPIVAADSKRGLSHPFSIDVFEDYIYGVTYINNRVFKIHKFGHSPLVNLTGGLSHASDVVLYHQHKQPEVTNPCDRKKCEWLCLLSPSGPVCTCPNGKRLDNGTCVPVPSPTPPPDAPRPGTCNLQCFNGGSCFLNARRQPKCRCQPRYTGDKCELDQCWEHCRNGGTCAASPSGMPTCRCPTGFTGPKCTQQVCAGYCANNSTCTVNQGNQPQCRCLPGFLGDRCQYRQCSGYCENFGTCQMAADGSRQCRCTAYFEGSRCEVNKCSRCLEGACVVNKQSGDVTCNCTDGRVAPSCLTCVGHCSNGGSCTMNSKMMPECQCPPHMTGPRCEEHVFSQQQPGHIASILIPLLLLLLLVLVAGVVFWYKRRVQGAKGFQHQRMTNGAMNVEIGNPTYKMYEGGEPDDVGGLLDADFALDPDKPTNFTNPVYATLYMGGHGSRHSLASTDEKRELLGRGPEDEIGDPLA

Biological target: LRP-1A (Homo sapiens) (UniProt Q07954)

Kd: 0.015 µM
Substance: pro-uPA (from UniProt P00749)
